# Measurements published in US20250270394A1, “CYCLODEXTRIN INCORPORATED SILICONE MATERIALS AND THEIR USE AS CARRIERS FOR ACTIVES” (WACKER CHEMIE AG, priority 2022, published 2025).
# Protocol: Such a homogneous mixture can also be formed by using a magnetic stirrer, overhead stirrer, Speedmixer™ or similar mixing techniques.
# Above experiment was repeated with a native γ-CD CAVAMAX® W8, which was not modified with silylation.
# Silylated β-cyclodextrin CH77 with low number of silyl groups (7.95 TMS and 3.23 VDMS groups on average) was evaluated to check the solubility in DM 5 at 10 wt. %.
substance,measurement,value
trimethylsilyl-vinyldimethylsilyl γ-cyclodextrin [CH60],solubility in DM 5 (appearance of mixture),"clear, homogeneous, transparent solution"
